Reference: patent US20240190994A1, “FUSION PROTEIN BETWEEN ANTIGEN-BINDING MOLECULE AND STREPTAVIDIN VARIANT” (The University of Tokyo, priority 2021, published 2024)

Assays:
[1] = tested on: KPL-4 xenograft tumor site, skin and major organs; assay: pathological analysis (H & E histology) of xenograft mouse models; assay type: in vivo, BALB/cSlc-nu/nu nude mice; details: 97th day
Source text: Skin samples from xenograft tumor sites, and samples from other important organs including lung, heart, kidney, liver and gastrointestinal tract, were obtained from the mice. […] Stained slides were dehydrated again by being immersed in ethanol and then being immersed in xylene. […] The H & E-stained slides were histologically examined using the OLYMPUS cellSens Standard system (OLYMPUS, Tokyo, Japan).

[2] = body weight of xenograft mouse models as indicator of treatment-related toxicity; assay type: in vivo, BALB/cSlc-nu/nu nude mice; details: all individual mice; FIG. 15A
Description: The KPL-4 cell line was maintained in DMEM (low glucose) (FUJIFILM Wako Pure Chemical Corporation, Osaka, Japan) supplemented with 10% FBS, 100 U/mL penicillin, and 100 μg/mL streptomycin (#15140122, Thermo Fisher Scientific, Waltham, MA, USA) (Kurebayashi J, Otsuki T, Tang CK, et al. Isolation and characterization of a new human breast cancer cell line, KPL-4, expressing the Erb B family receptors and interleukin-6. Br J Cancer. 1999; 79: 707-717. doi:10.1038/sj.bjc.6690114). The KPL-4 cells (7,500,000) were subcutaneously transplanted into the thigh of BALB/cSlc-nu/nu nude mice (Sankyo Lab Service, Inc., Tokyo, Japan). Proliferation of the subcutaneous tumor was monitored by measuring a tumor volume (0.5×length×width^2) using Vernier calipers, and the body weight of the animals was then monitored as an indicator of treatment-related toxicity. The tumor size of 20 mice increased at 44 days after the transplantation, and reached approximately 400 mm^3. These 20 mice were randomly classified into two groups each consisting of 10 mice, namely, a Kadcyla (registered trademark) group and a ZHER2:342-Cupid-His-Ax-SiPC group.

With trastuzumab emtansine [Kadcyla] the “mice with subcutaneous cysts surrounded by granuloma tissues” value [1] was “one”, the “granulomatous reaction in the subcutaneous region (frequency)” value ([1]; p<0.001, chi-square test) was 60% and the “granulomatous reaction in the subcutaneous region (mice affected/mice)” value ([1]; p<0.001, chi-square test) was 6/10. For the same substance, the “changes over time in body weight” value [2] was “moderate tendency of increasing the body weight”.
